Data taken from patent US9676793B2, “Co-crystals of 5-amino-2-oxothiazolo[4,5-d]pyrimidin-3(2H)-yl-5-hydroxymethyl tetrahydrofuran-3-yl acetate and methods for preparing and using the same” (Hoffmann-La Roche Inc., priority 2014, dated 2017).

Experiment: BCS classification of co-crystals (aqueous solubility)

BCS Class (Table 1): 1 | BCS Class (Stahl et al) (Table 10): 1
Substance: Fumaric acid
